scFv variants of Ab-91 (heavy chain) against a SARS-CoV-2 spike peptide

The target is the same throughout: PDVDLGDISGINAS, from the HR2 region of SARS-CoV-2 spike.

Parent: Ab-91, a human scFv built as VL, a (GGGGS)3 linker, VH. Only the CDRs of the heavy chain vary.
VL: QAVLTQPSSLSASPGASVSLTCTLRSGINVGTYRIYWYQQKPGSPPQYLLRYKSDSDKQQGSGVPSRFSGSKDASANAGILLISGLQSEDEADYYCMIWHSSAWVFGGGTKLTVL
VH: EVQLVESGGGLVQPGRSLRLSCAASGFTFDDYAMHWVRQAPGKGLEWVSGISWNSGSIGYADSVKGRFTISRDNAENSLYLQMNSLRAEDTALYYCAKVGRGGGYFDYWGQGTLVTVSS

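The parent was found by panning a naive human phage display library on the peptide. Variants in AAYL51 differ from the parent at up to three CDR positions; double and triple changes were sampled at random. In AlphaSeq, yeast of one mating type display the scFv and yeast of the other type display the target. The frequency of each diploid, read from paired DNA barcodes, reflects how well the two displayed proteins bind. Read counts were normalised to the haploid input and turned into Kd by a linear fit to BCL2-family pairs of known affinity, for each replicate. The assay was run in three technical replicates.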

Substitutions are numbered in sequence along the VH above, starting at 1 (not Kabat). Affinities are written as log10 Kd with Kd in nM; a lower number is a better binder. A mean of the replicates is given; it leaves out those without a signal. A pair that was not seen in any replicate is written "not detected"; this usually means weak binding, but a binder can also be missed. Parent in this assay: reference entry 1.86, copy in this library 0.88.

mean, log10 nM	detected	signal with controls	changes
not detected	0/3	0/9	D30E M34E V64G
not detected	0/3	0/9	D31T G50V Y108N
not detected	0/3	0/9	F29T M34L G56M
5.90	1/3	2/9	I51S S55Q V64P
2.98	3/3	1/9	S57N S63G D107Y
not detected	0/3	2/9	Y60E V99G Y105T
5.50	2/3	6/9	M34Y H35P F106C
3.58	1/3	1/9	N54Y S55H F106I
3.87	1/3	5/9	G26W W53R S57Y
0.66	3/3	1/9	F27V D31H Y108G
4.71	2/3	2/9	S52T S55Y V99Y
0.25	3/3	7/9	R101S G102M
2.41	3/3	3/9	D30H Y108P
not detected	0/3	0/9	M34T Y105Q
not detected	0/3	1/9	N54Y G56K F106H
not detected	0/3	0/9	F29N S57H V64C
not detected	0/3	0/9	I58E D107Q
not detected	0/3	1/9	T28V Y60F V64N
3.05	1/3	3/9	Y32T G59E Y105M
4.72	1/3	2/9	D62V G102D
1.59	3/3	1/9	W53F Y60F Y108E
not detected	0/3	0/9	M34L I51Q N54L
not detected	0/3	1/9	G26W Y32M H35W
5.49	3/3	7/9	G59L Y60M D62K
not detected	0/3	0/9	G102Y G104Q D107F
4.14	1/3	0/9	M34K W53I G56P
4.44	2/3	1/9	A61F F106R
not detected	0/3	1/9	D31M G50S I58S
not detected	0/3	0/9	G56H A61C D107I
not detected	0/3	0/9	T28V D31C Y105C
4.11	1/3	1/9	H35W S52D R101W
not detected	0/3	0/9	V99W G102L D107V
2.99	1/3	1/9	F27N R101E Y108C
4.94	1/3	5/9	G59N D62R
5.64	2/3	3/9	G26F G103R Y105M
5.00	2/3	4/9	S52H W53N S55Q
0.96	3/3	2/9	F29K A61Q G103P
6.05	1/3	1/9	Y32W G50N
not detected	0/3	0/9	D31F A33V N54P
not detected	0/3	2/9	M34L I51E R101W
6.06	1/3	4/9	F27N G103P G104L
not detected	0/3	1/9	M34G N54F R101D
not detected	0/3	1/9	D31G G100H G102A
5.28	3/3	7/9	M34K S57H Y105F
2.24	3/3	5/9	M34F W53P Y108P
not detected	0/3	0/9	D31T N54R D62H
3.27	3/3	4/9	Y60L F106W
3.92	1/3	1/9	F27H G104R
2.83	3/3	1/9	W53L D62R
5.54	2/3	3/9	F27E H35G G104K
4.72	2/3	4/9	F29D G56M G102N
not detected	0/3	0/9	T28I A61E V64G
4.85	3/3	4/9	A33C G59T V99R
1.14	3/3	1/9	D30K G56W
4.85	3/3	5/9	G26M S52R V99P
not detected	0/3	1/9	F27L D62V V64T

The first 5 entries again:

| changes | mean, log10 nM | detected | signal with controls |
|---|---|---|---|
| D30E M34E V64G | not detected | 0/3 | 0/9 |
| D31T G50V Y108N | not detected | 0/3 | 0/9 |
| F29T M34L G56M | not detected | 0/3 | 0/9 |
| I51S S55Q V64P | 5.90 | 1/3 | 2/9 |
| S57N S63G D107Y | 2.98 | 3/3 | 1/9 |

As a blank, each scFv also met three strains without target: over library AAYL51, 21% of these pairings were detected, typically at 4.54 and seldom below 3.26. For each scFv, signals with the empty controls are counted beside the result.

Values reported by Engelhart et al. 2022, doi:10.1038/s41597-022-01779-4 (FLAb copy).